Data as given in ChEMBL document CHEMBL3425465, “Synthesis, antimalarial and antitubercular activities of meridianin derivatives” (Eur J Med Chem, 2015).

Tested on: LLC-PK1
Test: Cytotoxicity against pig LLC-PK1 cells assessed as cell growth inhibition after 48 hrs by neutral red assay
Assay type: cell-based
Conditions: Sus scrofa, LLC-PK1, 48 h

SMILES: COc1cccc2c1C(=O)c1c(O)c3c(c(O)c1C2=O)C[C@@](O)(C(=O)CO)C[C@@H]3O[C@H]1C[C@H](N)[C@H](O)[C@H](C)O1 [DOXORUBICIN]
- IC50: 2600 nM
